The text below walks through data of patent publication US6844190B2, “St-B17 serotonin receptor” (The United States of America as represented by the …, priority 1992, dated 2005).

Chains of the proteins cited; added tags and fusions are not shown. A line that says so, or that is headed by a name, gives the form on record, which may keep a tag or linker.
UniProt P31388, with tags, fused parts or gaps L57V: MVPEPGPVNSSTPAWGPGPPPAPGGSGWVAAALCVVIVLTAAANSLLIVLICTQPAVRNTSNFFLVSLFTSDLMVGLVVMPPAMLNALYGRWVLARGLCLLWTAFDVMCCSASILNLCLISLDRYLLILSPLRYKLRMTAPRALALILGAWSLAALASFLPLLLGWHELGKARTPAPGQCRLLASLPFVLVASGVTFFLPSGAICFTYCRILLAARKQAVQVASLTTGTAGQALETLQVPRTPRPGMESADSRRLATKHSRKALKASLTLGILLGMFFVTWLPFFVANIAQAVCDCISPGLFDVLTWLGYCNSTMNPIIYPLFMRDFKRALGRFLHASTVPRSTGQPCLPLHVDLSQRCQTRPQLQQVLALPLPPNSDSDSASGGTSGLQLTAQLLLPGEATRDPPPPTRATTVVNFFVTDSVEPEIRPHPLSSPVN

Structures are written as SMILES.

The target of the assay is St-B17 serotonin receptor (Rattus norvegicus, UniProt P31388, L57V). Description: [125I]-LSD competition binding, Cos-7 cell membranes expressing St-B17. Further details: expressed in transfected cells; host or cells: Cos-7 cells, transient transfection, crude membranes. To be noted: among endogenous biogenic amines.

For the compound `NCCc1c[nH]c2ccc(O)cc12` [5-HT, 5-hydroxytryptamine], the “displacement of [125I]-LSD binding (in words)” value is listed as “completely displacing”.
